In patent US9889225B2, “Method for bone formation by administering poly(lactic-co-glycolic acid) cross-linked alendronate” (KAOHSIUNG MEDICAL UNIVERSITY, priority 2010, dated 2018):

Experiments:
[1] = Release kinetics in vitro of alendronate from PLGA-ALN carriers in PBS; format: physicochemical; settings: for concentration of the released alendronate: in PBS
rat femur bone defect = settings: 6 weeks after implantation

poly(lactic-co-glycolic acid) cross-linked alendronate [PLGA-ALN]
alendronate release each day ([1]; first two days, per day): 16%
two days release of alendronate ([1]; first two days, total): 32%
concentration of the released alendronate ([1]; first two day of burst release): ~5.5e-07 M
concentration of the released alendronate ([1]; remaining 10 days): 1.2 to 0.5×10^−7 M
alendronate release per day ([1]; remaining days): 4 to 8%
effect of implantation on the new bone formation process (viable cells in lacunae) (rat femur bone defect): did not affect the new bone formation process
fibril collagen formation (Masson staining) (rat femur bone defect): did not alter the fibril collagen formation
